Earlier results in patent US7629129B1, “Hair follicle bulb as a biodosimeter” (dated 2009).

Chains of the proteins cited; added tags and fusions are not shown. Lines headed by an entry give the natural chain unless they say otherwise; changes in a name come on top.
UniProt P04798: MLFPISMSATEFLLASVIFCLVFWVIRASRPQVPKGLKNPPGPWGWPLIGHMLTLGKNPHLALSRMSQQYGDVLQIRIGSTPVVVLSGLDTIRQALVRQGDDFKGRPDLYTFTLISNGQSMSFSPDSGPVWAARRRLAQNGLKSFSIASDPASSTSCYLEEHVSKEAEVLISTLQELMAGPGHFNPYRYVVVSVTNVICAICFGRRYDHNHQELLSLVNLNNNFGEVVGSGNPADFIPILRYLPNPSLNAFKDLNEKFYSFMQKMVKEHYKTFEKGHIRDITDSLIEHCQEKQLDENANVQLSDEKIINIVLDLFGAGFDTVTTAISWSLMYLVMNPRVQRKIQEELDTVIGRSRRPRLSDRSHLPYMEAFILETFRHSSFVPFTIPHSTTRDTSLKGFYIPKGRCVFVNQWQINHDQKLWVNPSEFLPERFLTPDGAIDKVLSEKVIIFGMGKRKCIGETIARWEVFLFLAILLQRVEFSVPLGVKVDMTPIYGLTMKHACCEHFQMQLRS

Experiments:
CYP1A1 = CYP1A1 (Homo sapiens, UniProt P04798); conditions: cell culture
ovarian carcinoma cells = conditions: cell culture
GDNF = conditions: rats, sub-chronic doses
ALDH = conditions: cell culture
GST = conditions: cell culture
NQO I = conditions: cell culture

For `CCC1(c2ccccc2)C(=O)NC(=O)NC1=O`, the CYP1A1 activity (CYP1A1) is given as “increase CYP1A1 activity (cell culture)”.

In the case of `CCOP(=S)(OCC)Oc1cc(C)nc(C(C)C)n1`, the estrogenic activity (ovarian carcinoma cells) is listed as “OP pesticide diazinon demonstrated estrogenic”.

In the case of `c1ccc(C2(N3CCCCC3)CCCCC2)cc1`, the “GDNF mRNA expression (rat brain)” value (GDNF) is given as “GDNF mRNA expression increased in rats”.

In the case of methylcholanthrene, the “induction of ALDH” value (ALDH) is listed as “induction of ALDH (cell culture)”, the CYP1A1 activity (CYP1A1) is listed as “increase CYP1A1 activity (cell culture)” and the “induction of GST” value (GST) is listed as “induction of GST (cell culture)”. For the same compound, the “induction of NQO I” value (NQO I) was “induction of NQO I (cell culture)”.
